For the test, the system named is zebrafish neuromast hair cells. Description: Zebrafish neuromast hair cell protection assay. Conditions: against 200 μM neomycin.

This note sets out measurements from publication PMC5889090 (Journal of medicinal chemistry, 2017).

Regarding `CCN1CCc2c(sc(NC(=O)Nc3ccc(Cl)cc3)c2C(N)=O)C1.Cl` [compound 1, 2-[3-(4-Chlorophenyl)ureido]-6-ethyl-4,5,6,7-tetrahydrothieno[2,3-c]pyridine-3-carboxamide], the “protection (hair cell survival)” value is recorded as approximately 100%.
